Source: PubChem BioAssay AID1347076 (National Center for Advancing Translational Sciences (NCATS), 2019)
Only a part is listed here, and it is no random draw. Records with an inconclusive call do not appear. The source made the active and inactive calls. Calls come from the whole dose curve; as a rule, active = well fitted cell-killing curve with a large enough effect; inconclusive = small, poorly fitted or top-dose-only effect, or effect the other way; inactive = flat fitted curve, though single readings scatter.

Assay: qHTS assay for MDR1-selective chemotherapeutics: Primary screen using the drug-selected MDR subline cells KB-V1; note: nearly all actives have a fitted effect of over 60% in size
Details: KB-V1 MDR cells viability, CellTiter-Glo, 72 h; series mostly up to 46.1 µM; activity change, negative = cytotoxicity: at the top concentration
Excerpt: A prime difficulty in effectively treating cancer is the development of cellular resistance to multiple structurally unrelated anticancer drugs, a phenomenon known as multidrug resistance (MDR). […] Numerous strategies to overcome P-gp-mediated MDR have been explored, including the design of drugs that evade recognition and efflux, and development of inhibitors to block efflux and restore drug accumulation. […] An alternative approach is to exploit resistance by identifying drugs that target MDR cells over the non-resistant parental cells from which they were selected. […] The development of MDR1-selective agents represents a new strategy for resolving multidrug resistance, as it remains a long-standing clinical challenge for cancer chemotherapy.
Our goal is to identify compounds that selectively kill P-gp-expressing MDR cells. We will identify MDR1-selective compounds by comparing toxicity of compounds in the screening library against parental, drug-naive (KB-3-1) adenocarcinoma cells as well as their drug-selected MDR sub-line (KB-V1). The differential toxicity of compounds against these two cell lines will be used to identify MDR1-selective compounds, whose cytotoxicity is potentiated, rather than diminished, by P-gp expression. This assay will be utilized to conduct a quantitative high-throughput screen (qHTS) in collaboration with the NIH Chemical Genomics Center to identify selective agents, and probe hits arising from the screen will be validated using secondary assays and characterized through a well-established follow-up research program. This screen was run against the entire NCGC library collection of about 400,000 compounds.
NIH Molecular Libraries Probe Production Network [MLPCN]
NIH Chemical Genomics Center [NCGC]
PI: Michael Gottesman, National Cancer Institute, NIH
Briefly, 5 microL of media containing either KB-V1 cells (columns 1-2, 4-48) are dispensed into Greiner white, treated solid-bottom 1536-well assay plates (media-only control is added to column 3). Compounds are then transferred via Kalypsys pin tool equipped with 1536-pin array (10 nL slotted pins, V&P Scientific, San Diego, CA). Following addition of compound, the plates are incubated at 37 degrees C for 72 hours. CellTiter-Glo (2.5 µL/well) is then added, and the plates are read in a ViewLux reader (Perkin-Elmer, clear luminescence filter, 1 second exposure, 1x binning) following a 10 minute incubation. All cells are dispensed in DMEM phenol-red free media containing 10% FBS.
Library plates were screened starting from the lowest and proceeding to the highest concentration. Vehicle-only plates, with DMSO being pin-transferred to columns 5-48, will be inserted uniformly at the beginning and the end of each library in order to monitor and record any shifts in the background, which can be affected by reagent dispensers or loss in enzyme activity over time. Screening data will be corrected, normalized, and concentration-effect relationships will be derived by using publicly-available NCGC, NCATS curve fitting algorithms (http://ncgc.nih.gov/pub/openhts).
% is set by controls: 0 for no effect and ±100 for the full control effect; potency is the fitted concentration of half-maximal effect.

Row | Compound | activity change, negative = cytotoxicity | Potency
1 | CC(C)(C)C(=O)NC(Sc1ccncn1)C(Cl)(Cl)Cl (stereo unspecified) | inactive: -11.6% | 
2 | O=[N+]([O-])c1ncn(CCn2ncnc2[N+](=O)[O-])n1 | inactive: 6.25% | 
3 | O=P(/N=c1/nc(-c2ccccc2)n(-c2ccccc2)s1)(Nc1ccccc1)Nc1ccccc1 | inactive: -13.3% | 
4 | Cc1cc(C=O)ccc1N(CCCl)CCCl | inactive: 2.77% | 
5 | O=P1(N(CCCl)CCCl)OCCCS1 (stereo unspecified) | inactive: 8.91% | 
6 | CC(C)c1nc(Nc2ccccc2)n(P(=O)(N(C)C)N(C)C)n1 | inactive: -2.89% | 
7 | COc1cc([N+](=O)[O-])c([N+](=O)[O-])cc1OC | inactive: -2.9% | 
8 | CC(C)=N/N=C(\N)N[N+](=O)[O-] | inactive: 23.4% | 
9 | CN(C)C(=O)OCCc1n(C)cc[n+]1C | inactive: 8.39% | 
10 | CC1CCN(C(=O)Oc2c(Cl)cc(Cl)c3cccnc23)CC1 | inactive: -27.8% | 
11 | c1cc(-c2nn[nH]n2)ccc1-c1nn[nH]n1 | inactive: 14% | 
12 | Nc1ccc([As](=O)(O)c2ccc(N)cc2)cc1 | inactive: -0.715% | 
13 | CCN(/C(=N/P(=O)(N1CCOCC1)N1CCOCC1)N1CCOCC1)c1ccc(OC)cc1 | inactive: -1.93% | 
14 | O=[N+]([O-])c1cccc2n[nH]nc12 | inactive: 5.72% | 
15 | CC(=O)N1C2C3N(C(C)=O)C1C1N(C(C)=O)C(C(N1C(C)=O)N3C(C)=O)N2C(C)=O | inactive: 25.8% | 
16 | Cc1ccc(NP(=O)(Oc2ccccc2)Oc2ccccc2)nc1 | inactive: 11% | 
17 | CCc1nc2c(n1)c1c(non1O)c1c2no[n+]1[O-] | inactive: -14.1% | 
18 | O=[N+]([O-])c1cc([N+](=O)[O-])c(CCNc2ccccc2)c([N+](=O)[O-])c1 | inactive: -8.7% | 
19 | COc1ccc(C2=NCC(CBr)S2)cc1 (stereo unspecified) | inactive: 9.16% | 
20 | CCC(C)N(CC(C)C)C(=S)SC(NC(C)=O)C(Cl)(Cl)Cl (stereo unspecified) | inactive: -0.675% | 
21 | CCOC(=O)c1ccc(NC(=O)C(C)(CCl)SC)cc1 (stereo unspecified) | inactive: 1.68% | 

Row | Compound | activity change, negative = cytotoxicity | Potency
22 | O=C(OC1CN2CCC1CC2)c1cccc([N+](=O)[O-])c1 (stereo unspecified) | inactive: 3.25% | 
23 | O=C(COc1ccccc1)OC1CN2CCC1CC2 (stereo unspecified) | inactive: 8.06% | 
24 | O=C(Nc1ccncc1[N+](=O)[O-])c1ccc([N+](=O)[O-])cc1[N+](=O)[O-] | inactive: -3.18% | 
25 | O=C(O)C(=O)c1ccc(N(CCCl)CCCl)cc1 | inactive: 9.49% | 
26 | COC(=O)C1(C)COP(=O)(N2CCCC2)OC1 (stereo unspecified) | inactive: -6.22% | 
27 | O=[N+]([O-])c1ccc(Nc2ccc(Oc3ccc([N+](=O)[O-])cc3[N+](=O)[O-])cc2)c([N+](=O)[O-])c1 | inactive: 3.61% | 
28 | O=P(Nc1ccccn1)(c1cccc2ccccc12)c1cccc2ccccc12 | inactive: 3.76% | 
29 | Cc1cc(SC(NC=O)C(Cl)(Cl)Cl)ncn1 (stereo unspecified) | inactive: 0.867% | 
30 | CCOC(=O)Nc1cccc([As](=O)(O)O)c1 | inactive: 11.7% | 
31 | CCCCOc1ccc(C(=O)NCC2(N3CCCCC3)CCCCC2)cc1OC | inactive: -18.8% | 
32 | Cc1cc(SC(NC(=O)c2ccccc2)C(Cl)(Cl)Cl)nc(C(C)C)n1 (stereo unspecified) | inactive: -25% | 
33 | COP(=O)(OC)N1CC1c1ccccc1 (stereo unspecified) | inactive: 25.2% | 
34 | CC1CCNP(=O)(N(CCCl)CCCl)O1 (stereo unspecified) | inactive: 22.2% | 
35 | CCOC(=O)Nc1ccc([As](=O)(O)O)c(O)c1 | inactive: -0.945% | 
36 | O=C(O)C(O)c1ccc(N(CCCl)CCCl)cc1 (stereo unspecified) | inactive: -1.24% | 
37 | O=C(OC1CN2CCC1CC2)c1cccc2[nH]cnc12 (stereo unspecified) | inactive: -0.348% | 
38 | CCN(CC)C(=S)SC(NC=O)C(Cl)(Cl)Cl (stereo unspecified) |  | active: 4.11 µM
39 | O=[N+]([O-])c1cc([N+](=O)[O-])c(-c2ccn[nH]2)s1 | inactive: -25.1% | 
40 | COC(=O)C1(C)COP(=O)(N2CCCCCC2)OC1 (stereo unspecified) | inactive: -26.8% | 
41 | ClCCSc1nnc(-c2cccnc2)o1 | inactive: 2.01% | 
42 | O=Cc1ccc(NCCCl)cc1 | inactive: 31.4% | 

Row | Compound | activity change, negative = cytotoxicity | Potency
43 | Cc1ccc2nc3c(c(C)c2c1)CC(C(Cl)Cl)S3 (stereo unspecified) | inactive: -26.7% | 
44 | [N-]=[N+]=NC1CCCCC1NC(=O)c1cc([N+](=O)[O-])cc([N+](=O)[O-])c1 (stereo unspecified) | inactive: -23.1% | 
45 | Cc1ccc(OP(=O)(Nc2ccc([N+](=O)[O-])cn2)Oc2ccc(C)cc2)cc1 | inactive: 25.9% | 
46 | ClCCN(CCCl)c1ccc(CC2C=CC=C2)cc1 | inactive: -0.662% | 
47 | O=[As](O)(c1ccc(O)cc1)c1ccccc1O | inactive: -4.05% | 
48 | C[As](=O)(O)c1cccc(C(=O)O)c1 | inactive: -6.73% | 
49 | O=[N+]([O-])c1ccc(-c2cc([N+](=O)[O-])c(O)c([N+](=O)[O-])c2)cc1 | inactive: 0% | 
50 | COc1cc(C(=O)NCC2(N3CCOCC3)CCCCC2)ccc1OCC(C)C | inactive: -13.6% | 
51 | COc1ccc(N/C(=N/P(=O)(N2CCOCC2)N2CCOCC2)N2CCOCC2)cc1 | inactive: -4.26% | 
52 | O=[N+]([O-])c1cc(Oc2ccc([N+](=O)[O-])cc2C(F)(F)F)cc([N+](=O)[O-])c1 | inactive: -3.68% | 
53 | COc1ccc2nc(NP(=O)(c3ccccc3)c3ccccc3)sc2c1 | inactive: 18.4% | 
54 | COc1cc(I)ccc1[As](=O)(O)O | inactive: -3.85% | 
55 | O=P1(N(CCCl)CCCl)OCCCN1CCCl (stereo unspecified) | inactive: -13.8% | 
56 | O=P1(N(CCCl)CCCl)Nc2ccccc2N1 | inactive: 17.9% | 
57 | O=C(OC1CN2CCC1CC2)C12CC3CC(CC(C3)C1)C2 (stereo unspecified) | inactive: -23% | 
58 | Cc1cc(=O)[nH]c(N[N+](=O)[O-])n1 | inactive: 7.99% | 
59 | Cc1c2c(nc3ccccc13)SC(C(Cl)Cl)C2 (stereo unspecified) | inactive: 3.8% | 
60 | COc1cc(C2NCCC3(OCCO3)C2(C)C)cc(OC)c1OC (stereo unspecified) | inactive: 0% | 
61 | CCOP(=O)(Nc1cccc2ccccc12)OCC | inactive: -4.27% | 
